“Also recorded” adds a separate entry of the source.
Assay: 31P-NMR phase preference of equimolar DOPE:cholesterol mixtures with bilayer stabilizing component (BSC)
Assay type: physicochemical
Conditions: for bilayer stabilizing ability: BSC 5 mol %; for bilayer to HII transition temperature: BSC 5 mol % (1:1:0.05)
Method: Lipid components were mixed in 1-2 ml of benzene:methanol (95:5, v/v) and then lyophilized for a minimum of 5 hours at a pressure of <60 millitorr using a Virtis lyophilizer equipped with a liquid N2 trap. Multilamellar vesicles (MLVs) were prepared by hydrating the dry lipid mixtures in 150 mM NaCl, buffered with 10 mM Hepes-NaOH, pH 7.4 (Hepes-buffered saline, HBS). Mixtures were vortexed to assist hydration. To produce large unilamellar vesicles (LUVs), MLVs were first frozen in liquid nitrogen and then thawed at 30° C. five times. LUVs were produced by extrusion of the frozen and thawed MLVs ten times through 2 stacked polycarbonate filters of 100 nm pore size at 30° C. and pressures of 200-500 psi (Hope, et al., Biochim. Biophys. Acta, 812:55-65 (1985)).
^31P-NMR spectra were obtained using a temperature controlled Bruker MSL200 spectrometer operating at 81 MHz. Free induction decays were accumulated for 2000 transients using a 4 μs, 90° pulse, 1 sec. interpulse delay, 20 KHz sweep width and Waltz decoupling. A 50 Hz line broadening was applied to the data prior to Fourier transformation. Samples were allowed to equilibrate at the indicated temperature for 30 minutes prior to data accumulation. Lipid concentrations of 30-70 mM were used.

With “poly-(ethyleneglycol)2000 conjugated to DOPE [DOPE-PEG2000]” the bilayer stabilizing ability was “limited bilayer stabilizing ability”, the “bilayer to HII transition temperature” value was “approximately 10 °C” and the “bilayer to hexagonal (HII) phase transition” value (BSC 9 mol % (1:1:0.1), spectra 0-60° C.) was 40-50 °C. For the same substance, the “phase preference (31P-NMR)” value (BSC 20 mol % of phospholipid (1:1:0.25)) was “almost exclusively bilayer; also recorded: stabilized in the bilayer conformation”.
With “poly-(ethyleneglycol)5000 conjugated to DOPE [DOPE-PEG5000]” the bilayer stabilizing ability was “marked increase in bilayer stability” and the “bilayer to HII transition temperature” value was “approximately 30 °C”.

— patent publication US6673364B1, “Liposome having an exchangeable component” (The University of British Columbia, priority 1995, dated 2004)
